Laboratory results as given in US11008286B2, “Amino mercaptan compound and preparation method therefor and use thereof in protection against radiation” (Institute of Radiation Medicine Chinese Academy of Medical …, priority 2016, dated 2021).
Counter-ions that a name gives are not always drawn. Where a SMILES comes first, the peptide text is derived from it. [ ]: non-standard residue; d: D form.

Tested on: C57 male mice
Settings: 400 mpk and 800 mpk IP, irradiation 90 min after administration
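Also: mice aged 8-10 weeks, weighing 20-22 g, with deaths logged and survival rate computed on day 30.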

NC(=O)[C@H](CS)NC(=O)[C@H](N)CS [Example 17, (S)-2-amino-N—((R)-1-amino-3-mercapto-1-oxopropan-2-yl)-3-mercaptopropanamide trifluoroacetate] (H-[dC]-Cys-NH2)
toxic reactions after intraperitoneal injection: muscle tremors and other toxic reactions were observed
